Sequences of proteins named here, by UniProt entry; tags and fusion partners are left off. A change or cut given only in a name is not applied to a line headed by its entry.
UniProt P34914: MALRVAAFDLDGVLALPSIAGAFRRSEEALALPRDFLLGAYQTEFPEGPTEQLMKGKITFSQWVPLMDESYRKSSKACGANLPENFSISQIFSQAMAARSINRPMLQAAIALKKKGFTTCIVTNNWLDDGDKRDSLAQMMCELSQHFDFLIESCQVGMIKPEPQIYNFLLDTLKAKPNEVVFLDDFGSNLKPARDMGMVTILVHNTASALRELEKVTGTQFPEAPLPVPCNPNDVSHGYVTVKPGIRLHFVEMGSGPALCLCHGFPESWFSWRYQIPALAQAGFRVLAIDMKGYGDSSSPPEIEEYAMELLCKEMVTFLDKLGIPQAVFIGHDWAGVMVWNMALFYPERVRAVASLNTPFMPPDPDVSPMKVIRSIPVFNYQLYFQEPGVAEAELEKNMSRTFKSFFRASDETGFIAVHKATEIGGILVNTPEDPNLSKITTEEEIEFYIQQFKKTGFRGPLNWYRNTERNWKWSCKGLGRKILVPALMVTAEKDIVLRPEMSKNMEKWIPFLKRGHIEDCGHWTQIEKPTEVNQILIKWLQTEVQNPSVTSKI
UniProt P07099: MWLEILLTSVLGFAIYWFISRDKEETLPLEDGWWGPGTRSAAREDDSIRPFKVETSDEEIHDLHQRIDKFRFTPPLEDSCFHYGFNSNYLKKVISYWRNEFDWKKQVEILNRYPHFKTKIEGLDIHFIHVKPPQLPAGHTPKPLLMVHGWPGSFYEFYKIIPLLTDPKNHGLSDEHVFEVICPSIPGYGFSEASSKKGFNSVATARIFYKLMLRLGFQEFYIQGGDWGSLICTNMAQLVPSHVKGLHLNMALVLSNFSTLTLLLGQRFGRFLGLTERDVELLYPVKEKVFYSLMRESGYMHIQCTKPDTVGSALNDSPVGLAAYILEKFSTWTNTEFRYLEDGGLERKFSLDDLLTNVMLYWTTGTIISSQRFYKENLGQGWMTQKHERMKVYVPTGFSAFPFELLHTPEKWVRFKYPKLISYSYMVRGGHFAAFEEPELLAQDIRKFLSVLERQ

In patent publication US20060035869A1 (published 2006):

How the values were obtained:
mouse sEH = mouse sEH (Mus musculus, UniProt P34914); experiment: Inhibition of recombinant mouse soluble EH, spectrophotometric NEP2C assay; assay type: biochemical; settings: FIG. 1
microsomal EH = microsomal EH (Homo sapiens, UniProt P07099); experiment: biochemical; settings: read-out: % Inhibition by 100 μM of 2

O=C(NC1CCCCC1)NC1CCCCC1 [Compound 2, N,N′-dicyclohexylurea]
effect of time on the inhibition of mouse sEH (mouse sEH): stable over time
% Inhibition by 100 μM of 2 (pepsin): 0.1 ± 0.1%
inhibition at 100 µM (microsomal EH): 0.5 ± 0.8%
